# Key:
# [1] = Pharmacokinetics in mice (HPLC plasma levels); conditions: single i.v. bolus 25 mg/kg or i.p. bolus 50 mg/kg
# Procedure: All collected blood samples were heparinized and centrifuged at 7,000xg for 5 minutes in a microcentrifuge to obtain plasma. The plasma samples were stored at −20° C. until analysis.
# The analytical column was equilibrated and eluted under isocratic conditions utilizing a flow rate of 1.0 mL/min at ambient temperature. The wavelength of detection was set at 294 nm. Peak width, response time, and slit were set at >0.03 min, 0.55 sec, and […], respectively. […] Following centrifugation at 300xg for 5 minutes, the supernatant was used for HPLC analysis using a system comprised of a Hewlett Packard (HP) series 1100 instrument equipped with an automated electronic degasser, a quaternary pump, an autosampler, an automatic thermostatic column compartment, diode array detector and a computer with a Chemstation software program for data analysis (Chen and Uckun, 1999; Malaviya et al., 2000). All extraction procedures were carried out at room temperature.
# The unweighed linear regression analysis of the standard curves was performed by using the CA-Cricket Graph III computer program, Version 1.0 (Computer Association, Inc., Islandia, N.Y.). […] Pharmacokinetic modeling and pharmacokinetic parameter estimations were carried out using the pharmacokinetics software, WinNonlin Program, Professional version 3.0 (Pharsight Inc., Mountain view, Calif.) (Chen and Uckun, 1999; Malaviya et al. 2000; Uckun et al., 1999).
# The elimination half-life was estimated by linear regression analysis of the terminal phase of the plasma concentration time profile. The area under the concentration time curve (AUC) was calculated by the linear trapezoidal rule between the first (0 hours) and last sampling time plus C/k, where C is the concentration at the last sampling time and k is the elimination rate constant. The systemic clearance (CL) was determined by dividing the does by the AUC (Chen and Uckun, 199; Malaviya et al., 2000; Uckun et al., 1999).
# A one-compartment, first order pharmacokinetic model was fit into the pharmacokinetic data. […]
# mice = test: Toxicity of LFM-A13 in mice; conditions: mouse, in vivo
# Excerpt: For histopathologic studies, tissues were fixed in 10% neutral buffered formalin, dehydrated, and embedded in paraffin by routine methods.
compound,measurement,setting,value
"C/C(O)=C(\C#N)C(=O)Nc1cc(Br)ccc1Br [LFM-A13, α-cyano-β-hydroxy-β-methyl-N-(2,5-dibromophenyl)-propenamide]",plasma concentration achieved,[1],> 10 µM
same,time plasma concentration >10 μM maintained,[1],> 2 h
same,time to achieve plasma concentration >10 μM,[1],≤ 3 min
same,"toxicity, systemic administration",mice,not toxic

# Reference: US6589992B2, “Inhibiting collagen-induced platelet aggregation” (Parker Hughes Institute, priority 1999, dated 2003)
